# From PubChem BioAssay AID2241 (Broad Institute, 2010)
# Only a part is listed here, and it is no random draw. Some salts or complexes appear as unconnected parts, following the source record. Activity calls are given as the source filed them.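 The calls were made as follows: active = most replicate scores above 10, or exactly half above 10 with mean activity above 10; inconclusive = mean activity below 10 while half the replicates exceed 10; inactive = most replicate scores below 10.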
# Experiment: inducers of caspase activity in MEF A1-2A-BIM cells, primary screen, A1 inhibitor project, cell-based, CaspaseGlo luminescence (AID 2241);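 also: effector caspase 3 and 7 activity cleaving a DEVD luciferin substrate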
# Conditions: caspase-Glo luminescence, 3 h, hits give high values, percent of clofoctol signal, DMSO as zero, concentration not given here
row,SMILES,caspase activation
1,C/C1=C2N=C(/C=C3N=C(/C(C)=C4\[N-][C@@](C)([C@@H]5N=C1[C@](C)(CCC(=O)NCC(C)OP(=O)(O)O[C@@H]1[C@H](O)[C@H](n6cnc7cc(C)c(C)cc76)O[C@H]1CO)[C@H]5CC(N)=O)[C@@](C)(CC(N)=O)[C@@H]4CCC(N)=O)[C@@](C)(CC(N)=O)[C@@H]\3CCC(N)=O)C(C)(C)[C@@H]/2CCC(N)=O.[C-]#N.[Co+3] (some centres undefined),inactive: -0.605%
2,Cc1cccc(OCC(=O)OC2CN3CCC2CC3)c1 (centres undefined),inactive: -0.283%
3,O=C(OC1CN2CCC1CC2)c1ccc(Cl)cc1 (centres undefined),inactive: 0.541%
4,Cc1ccc(C(=O)OC2CN3CCC2CC3)cc1 (centres undefined),inactive: 0.305%
5,Cc1cc(C)cc(OP(C)(=O)Nc2ccc(OC(C)C)cc2)c1 (centres undefined),inactive: 0.186%
6,O=P1(Nc2ccccn2)COc2ccccc2OC1,inactive: 0.566%
7,COc1cc2c(cc1NP(C)(=O)Oc1ccccc1)oc1ccccc12 (centres undefined),inactive: 0.441%
8,CN(C(=O)Cc1ccc(Cl)c(Cl)c1)[C@H]1CCCC[C@@H]1N1CCCC1,inactive: 0.309%
9,CP(=O)(Nc1ccc(Cl)cc1)Oc1ccc(F)cc1 (centres undefined),inactive: 0.0447%
